Measurements from PubChem BioAssay (NCI).
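Grown in 96-well plates, cells were treated for 48 hours with each compound at five concentrations. Insufficient inhibition: endpoint recorded as highest concentration tested. GI50: concentration for 50% inhibition of growth. TGI is the concentration that stops growth completely.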

Assays:
Assay in all cases: growth of human tumour cells (NCI), 48 h; in the data active = GI50 below about 0.43 µM; inactive = the rest
M14 melanoma = test system: M14 melanoma
MOLT-4 leukemia = test system: MOLT-4 leukemia
LXFL 529 NSCLC = test system: LXFL 529 NSCLC
SNB-75 CNS = test system: SNB-75 CNS
HCT-116 colon = test system: HCT-116 colon
OVCAR-3 ovarian = test system: OVCAR-3 ovarian
EKVX NSCLC = test system: EKVX NSCLC
SK-MEL-2 melanoma = test system: SK-MEL-2 melanoma
HCT-15 colon = test system: HCT-15 colon
HCC-2998 colon = test system: HCC-2998 colon
NCI-H322M lung = test system: NCI-H322M lung
OVCAR-8 ovarian = test system: OVCAR-8 ovarian
UACC-62 melanoma = test system: UACC-62 melanoma
RXF 393 renal = test system: RXF 393 renal
SK-MEL-5 melanoma = test system: SK-MEL-5 melanoma
HOP-92 NSCLC = test system: HOP-92 NSCLC
NCI-H460 lung = test system: NCI-H460 lung
CAKI-1 renal = test system: CAKI-1 renal
HL-60(TB) leukemia = test system: HL-60(TB) leukemia
ACHN renal = test system: ACHN renal
UACC-257 melanoma = test system: UACC-257 melanoma
SK-OV-3 ovarian = test system: SK-OV-3 ovarian
SNB-19 CNS = test system: SNB-19 CNS
NCI-H522 lung = test system: NCI-H522 lung
A549 NSCLC = test system: A549 NSCLC
COLO 205 colon = test system: COLO 205 colon
M19-MEL melanoma = test system: M19-MEL melanoma

CCCCOP(=O)(OCCCC)N1CCCC1C(=O)O (stereo not drawn)
inactive: GI50 (M14 melanoma) > 100 µM | GI50 (MOLT-4 leukemia) > 100 µM | GI50 (LXFL 529 NSCLC) > 100 µM | GI50 (SNB-75 CNS) > 100 µM | GI50 (HCT-116 colon) > 100 µM | GI50 (OVCAR-3 ovarian) > 100 µM | GI50 (EKVX NSCLC) > 100 µM | GI50 (SK-MEL-2 melanoma) > 100 µM | GI50 (HCT-15 colon) > 100 µM | GI50 (HCC-2998 colon) > 100 µM | GI50 (NCI-H322M lung) > 100 µM | GI50 (OVCAR-8 ovarian) > 100 µM | GI50 (UACC-62 melanoma) > 100 µM | GI50 (RXF 393 renal) > 100 µM | GI50 (SK-MEL-5 melanoma) > 100 µM | GI50 (HOP-92 NSCLC) > 100 µM | GI50 (NCI-H460 lung) > 100 µM | GI50 (CAKI-1 renal) > 100 µM | GI50 (HL-60(TB) leukemia) > 100 µM | GI50 (ACHN renal) > 100 µM | GI50 (UACC-257 melanoma) > 100 µM | GI50 (SK-OV-3 ovarian) > 100 µM | GI50 (SNB-19 CNS) > 100 µM | GI50 (NCI-H522 lung) > 100 µM | GI50 (A549 NSCLC) > 100 µM | GI50 (COLO 205 colon) > 100 µM | GI50 (M19-MEL melanoma) > 100 µM
> 100 µM: TGI (M14 melanoma) | TGI (MOLT-4 leukemia) | TGI (LXFL 529 NSCLC) | TGI (SNB-75 CNS) | TGI (HCT-116 colon) | TGI (OVCAR-3 ovarian) | TGI (EKVX NSCLC) | TGI (SK-MEL-2 melanoma) | TGI (HCT-15 colon) | TGI (HCC-2998 colon) | TGI (NCI-H322M lung) | TGI (OVCAR-8 ovarian) | TGI (UACC-62 melanoma) | TGI (RXF 393 renal) | TGI (SK-MEL-5 melanoma) | TGI (HOP-92 NSCLC) | TGI (NCI-H460 lung) | TGI (CAKI-1 renal) | TGI (HL-60(TB) leukemia) | TGI (ACHN renal) | TGI (UACC-257 melanoma) | TGI (SK-OV-3 ovarian) | TGI (SNB-19 CNS) | TGI (NCI-H522 lung) | TGI (A549 NSCLC) | TGI (COLO 205 colon)
